Experimental data taken from paper PMC5889090 (Journal of medicinal chemistry, 2017).

Tested on: zebrafish neuromast hair cells
Test: Zebrafish neuromast hair cell protection assay
Settings: against 200 μM neomycin

CCN1CCc2c(sc(NC(=O)Nc3ccc(Cl)cc3)c2C(N)=O)C1.Cl [compound 1, 2-[3-(4-Chlorophenyl)ureido]-6-ethyl-4,5,6,7-tetrahydrothieno[2,3-c]pyridine-3-carboxamide]
protection (hair cell survival): ~100%
